Like-named read-outs stand apart in the source and are kept apart here.
Target: T1, AURKA (Homo sapiens, UniProt O14965)
T1 construct: endogenous in cells; host or cells: Jurkat cells
T1 sequence (O14965 1-403): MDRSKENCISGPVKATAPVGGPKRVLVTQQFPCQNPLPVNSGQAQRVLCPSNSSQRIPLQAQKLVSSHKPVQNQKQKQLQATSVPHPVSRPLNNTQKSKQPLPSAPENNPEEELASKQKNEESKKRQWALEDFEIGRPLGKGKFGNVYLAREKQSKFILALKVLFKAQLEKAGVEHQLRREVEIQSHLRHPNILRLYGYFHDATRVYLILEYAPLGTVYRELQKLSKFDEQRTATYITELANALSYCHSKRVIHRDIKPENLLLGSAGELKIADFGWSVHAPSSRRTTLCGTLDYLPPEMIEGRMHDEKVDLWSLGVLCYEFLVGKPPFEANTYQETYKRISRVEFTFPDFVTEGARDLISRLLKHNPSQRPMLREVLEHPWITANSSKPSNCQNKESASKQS
Format: cell-based
Excerpt: WB is a classical biochemical experimental method used to detect the abundance of a target protein in a sample of cells or biological tissue. It relies on specific antigen-antibody binding to detect protein signals from the sample processed by gel electrophoresis: the protein specifically binds to a primary antibody at an epitope; the primary antibody is then conjugated with a secondary antibody to amplify the signal cascade; the signal is read out by chemiluminescent or fluorescent detection. The intracellular protein content is ultimately characterized by the intensity of the optical signals. […] The DC50 value can be calculated by curve fitting of the protein WB exposure signals.
The experimental procedure is as follows: • 1. Seed Jurkat cells into a 12-well plate at 1×10^6 cells/500 µL/well. • 2. Mix the culture medium with the compound to a concentration that is twice the desired final concentration. […] Transfer the cell suspension to a centrifuge tube. Rinse the 12-well plate with PBS and then transfer the PBS from the plate to the same centrifuge tube. Centrifuge at 3000 rpm for 5 min at room temperature. Aspirate the supernatant using a vacuum pump. […] Lyse on ice for 20 min. • 4. Centrifuge the lysed sample at 13000 rpm for 20 min at 4°C. Mix the supernatant with 5× protein loading buffer. Boil at 100°C for 5 min and then cool. Store the denatured protein sample at -20°C. • 5. […] Run electrophoresis at 80 V for 20 min, and then at 120 V constant voltage for 60 min. • 6. Transfer the protein onto a nitrocellulose membrane in an ice bath at 250 mA constant current for 90 min. • 7. […] Incubate with a primary antibody overnight at 4°C. • 9. […] Incubate with a secondary antibody for 1-2 h at room temperature. • 10. […] Expose and image the membrane using a LICOR Odyssey DLx imager.

[1] = 100 nM compound, Jurkat cells, 24 h, Table 1
[2] = 1 µM compound, Jurkat cells, 24 h, Table 1

| Structure (SMILES) | Percentage of AURKA Degradation Induced by 100 nM Compound in Jurkat Cells [1] | Percentage of AURKA Degradation Induced by 1 µM Compound in Jurkat Cells [2] | Percentage of AURKA Degradation Induced by 100 nM Compound in Jurkat Cells | Percentage of AURKA Degradation Induced by 1 µM Compound in Jurkat Cells |
| --- | --- | --- | --- | --- |
| COc1cc(Nc2ncc3c(n2)-c2ccc(Cl)cc2C(c2c(F)cccc2OC)=NC3)ccc1C(=O)NC1CC(C#Cc2cccc(N3CCC(=O)NC3=O)c2)C1 (centres unmarked) [Compound A50] | +++ (Degradation > 70%) | +++ (Degradation > 70%) |  |  |
| O=C1CCN(c2cccc(C#CC34CC(NC(=O)c5ccc(Nc6ncc7c(n6)-c6ccc(Cl)cc6C(c6c(F)cccc6F)=NC7)cc5)(C3)C4)c2)C(=O)N1 [Compound A76] | ++ (30% < Degradation ≤ 70%) | ++ (30% < Degradation ≤ 70%) |  |  |
| O=C1CCN(c2cccc(N3CCN(CC#Cc4cccc(Nc5ncc6c(n5)-c5ccc(Cl)cc5C(c5c(F)cccc5F)=NC6)c4)CC3)c2)C(=O)N1 [Compound A98] |  |  | ++ (key: +: Degradation ≤ 30%; ++: 30% < Degradation ≤ 70%; +++: Degradation > 70%) | +++ (key: +: Degradation ≤ 30%; ++: 30% < Degradation ≤ 70%; +++: Degradation > 70%) |
| O=C1CCN(c2cccc(C#CCN3CCn4c(cnc4-c4ccc(Nc5ncc6c(n5)-c5ccc(Cl)cc5C(c5c(F)cccc5F)=NC6)cc4)C3)c2)C(=O)N1 [Compound A145] |  |  | ++ (key: +: Degradation ≤ 30%; ++: 30% < Degradation ≤ 70%; +++: Degradation > 70%) | ++ (key: +: Degradation ≤ 30%; ++: 30% < Degradation ≤ 70%; +++: Degradation > 70%) |
